Results as given in BindingDB's records for PubMed 8099194 (Astra Arcus, 1993).

Chains of the proteins cited; added tags and fusions are not shown.
UniProt P14416, whole entry: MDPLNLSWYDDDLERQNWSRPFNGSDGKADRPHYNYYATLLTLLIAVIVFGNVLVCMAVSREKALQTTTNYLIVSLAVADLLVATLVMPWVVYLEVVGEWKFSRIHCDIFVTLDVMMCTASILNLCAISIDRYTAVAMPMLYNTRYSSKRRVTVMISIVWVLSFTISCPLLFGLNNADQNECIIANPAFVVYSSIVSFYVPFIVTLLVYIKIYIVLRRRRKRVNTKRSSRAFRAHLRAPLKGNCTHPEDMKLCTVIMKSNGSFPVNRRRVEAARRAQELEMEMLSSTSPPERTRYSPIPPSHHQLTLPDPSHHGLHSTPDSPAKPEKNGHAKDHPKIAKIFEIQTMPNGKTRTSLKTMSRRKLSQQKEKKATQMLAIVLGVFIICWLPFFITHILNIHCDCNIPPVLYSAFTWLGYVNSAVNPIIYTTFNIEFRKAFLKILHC

Molecular target: D(2) dopamine receptor (Homo sapiens, UniProt P14416)

Ki: 0.6 nM
SMILES: CCN1CCC[C@H]1CNC(=O)c1c(O)c(Cl)cc(Cl)c1OC [3,5-Dichloro-N-(1-ethyl-pyrrolidin-2-ylmethyl)-2-hydroxy-6-methoxy-benzamide (raclopride)]
